Ab-14 light chain CDR variants: yeast mating affinities

From the AlphaSeq antibody data of Li et al. 2023 (doi:10.1038/s41467-023-39022-2), copy in the FLAb collection.

Target peptide (SARS-CoV-2 spike, HR2 region): PDVDLGDISGINAS

The variants keep the heavy chain, the linker and the frameworks of Ab-14 (scFv order VH, three GGGGS repeats, VL).
VH: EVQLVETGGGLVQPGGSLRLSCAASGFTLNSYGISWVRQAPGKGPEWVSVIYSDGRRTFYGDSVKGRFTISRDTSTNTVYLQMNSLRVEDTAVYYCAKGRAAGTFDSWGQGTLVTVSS
VL: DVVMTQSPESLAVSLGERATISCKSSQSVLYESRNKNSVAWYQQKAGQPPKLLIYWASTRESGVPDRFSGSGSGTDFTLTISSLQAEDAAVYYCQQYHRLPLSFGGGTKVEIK

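Phage display of a naive human antibody library on the peptide gave the parent. The variants were designed computationally from a first round of random CDR variants and then made and measured. Their group label is 14L_En_Gen (En: ensemble of fine-tuned language models; Gen: genetic algorithm). AlphaSeq pools MATa yeast showing the antibodies with MATalpha yeast showing the peptide. Pairs that bind mate more often; barcode pairs of the diploids are counted by sequencing. The ratio of observed to expected reads was calibrated, replicate by replicate, on BCL2-family standards whose Kd was known from biolayer interferometry. Each pool was mated in six replicate cultures.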

Each variant is given by its three light chain CDRs, as the data file delimits them; those of the parent are KSSQSVLYESRNKNSVA, WASTRES, QQYHRLPLS.
The read-out is the apparent dissociation constant on a log10 scale (nM): the lower, the stronger.
A mean of the replicates is given; it leaves out those without a signal.
"n.d." marks a missing value. The strain was present, yet no cells mated with the target were sequenced in that replicate, which points to weak or no binding.
Of ten entries with the parent sequence, four were seen in most replicates (averages 0.34 to 2.37), three in one and three in none, so single entries are noisy.

CDR-L1	CDR-L2	CDR-L3	log10 Kd, replicates	mean, log10 nM	signal with controls
KISQMVRVGATVSNSIA	EEVTRAN	QQYHRLPLS	0.64 0.46 0.73 0.16 0.42 0.71	0.52	0/18
IVSQLMLWGMHAKNSIA	EGQTRLN	QQYDRLPLF	n.d. n.d. n.d. n.d. n.d. n.d.	n.d.	0/18
MVSMNIYGEYRMRDNVA	HASMREK	QCYDRLPLS	1.90 1.20 1.58 2.34 3.16 2.77	2.16	1/18 (1.03)
KVSEFMRGLMKIKNSIA	DNVTRNN	QQYDRLPLS	2.16 n.d. 2.00 2.23 3.28 2.33	2.40	0/18
KIGMTLNQMMHKKNNVA	DLVERAN	QQYHRLPLS	1.52 1.04 0.72 0.64 0.96 1.02	0.98	2/18 (2.38)
IIDQIMFHGNKRANSIA	QASQRVN	QQYHHLPLT	n.d. 1.79 1.77 1.55 n.d. 1.82	1.73	0/18
KLSMTTEMELKNRNSVA	ELVTRCN	QQYNRLPLS	1.13 n.d. 0.46 0.64 1.13 0.66	0.80	0/18
KLTMITGLEKVSTNNVA	EMETREV	QQYNRLPLS	2.20 1.59 1.21 1.16 0.97 1.75	1.48	1/18 (2.32)
SLGLVTMLEYAGRNNVA	NNSTREA	QQYDRLPLS	1.28 2.47 1.89 2.19 1.59 2.40	1.97	1/18 (2.62)
MISQVLNTLTRTGNNVA	DLTEREV	QQYFRLPLS	n.d. n.d. n.d. n.d. n.d. n.d.	n.d.	0/18
KISGMSNHQSSVHNNVA	ENVTRVE	QQYFRLPLS	0.34 0.56 0.13 0.15 0.22 0.23	0.27	0/18
MVYQAAMMGTSTRNSIA	NAEMRPD	QQYHRLPLI	1.11 0.79 0.92 0.73 1.05 0.99	0.93	2/18 (2.88)
KIGMTLNTLTHQKNNVA	DLVEREN	QQYFRLPLS	-0.03 0.01 -0.25 -0.22 0.21 -0.09	-0.06	0/18
KLSMITGHMSMQRNNVA	EMVTREN	QQYDRLPLS	1.08 0.53 0.48 0.67 0.39 0.73	0.65	2/18 (2.64)
KLSGIMRMESKVSNSIA	EVNERPE	QQYDRLPLS	1.11 1.05 0.87 1.23 1.07 1.10	1.07	0/18
MVTQMAMTGMMSKRSVA	NATTREE	QQYHHLPLI	0.73 0.60 0.79 0.51 0.79 1.09	0.75	2/18 (3.22)
TLYGLTNSMLKNKDNVA	EMSTREQ	QQYDRLPLA	0.83 0.33 1.47 0.51 1.07 0.62	0.80	0/18
TISQMTSLFSQTINNVA	EVSTREP	QQYDRLPLV	0.29 0.68 0.42 0.96 0.65 0.72	0.62	1/18 (2.49)
MISQLYNMGTFAINSVA	QASIRNE	QQYDRLPLM	1.44 1.13 2.25 1.58 1.39 3.47	1.88	0/18
KISQMIRVGSTASNSIA	EEVTRAK	QQYHRLPLA	0.50 0.21 0.59 0.79 0.69 1.23	0.67	3/18 (2.59)
KIGATLNTLMHQKNNVA	DLVMREQ	QQYHRLPLS	0.34 0.11 -0.01 -0.05 -0.15 0.29	0.09	1/18 (3.61)
TITEFMGNLQQARNSVA	DTSTLGN	QSYDRLPLS	1.70 2.02 1.96 1.52 2.87 1.90	2.00	0/18
KLVQFMNRGTHHTSNIA	DAALRED	QQYYRLPLA	1.30 1.12 0.94 1.15 1.15 1.34	1.17	3/18 (2.29)
TLYGLSNSMSKNKNNVA	EMSTREP	QQYDRLPLV	0.83 0.89 0.86 0.71 0.90 1.23	0.90	1/18 (2.75)
MISQLYNMGQFAINSVA	QANLREE	QQYDRLPLM	1.58 1.07 1.09 1.01 1.50 1.29	1.26	2/18 (2.14)
HMSMLTLSGMRHRNAVA	QMTTREN	QQYDRLPLT	1.95 0.79 n.d. n.d. n.d. 1.40	1.38	0/18
IVSQLMLWGMKAKNSIA	EAQTRVN	QQYDRLPLF	n.d. n.d. n.d. n.d. n.d. n.d.	n.d.	0/18
TISQMSTLFSQSINNVA	EVSTREE	QQYDRLPLM	0.47 0.37 0.40 0.83 0.53 0.65	0.54	1/18 (3.73)
MISMNIYGAYRARDNVA	HASNRED	QCYDRLPLS	1.59 n.d. 2.01 1.95 1.77 1.23	1.71	0/18
HMSMLTLGGMRQRNSVA	QMTTREN	QQYDRLPLS	0.47 0.21 0.74 0.36 0.47 0.87	0.52	1/18 (2.76)
TIADLMGHISKNMNNVA	DMDTRGE	QQYNRLPLS	0.01 -0.16 -0.39 -0.42 -0.39 -0.09	-0.24	1/18 (4.47)
MISQLFNMGQFAINSVA	QASVRNE	QQYDRLPLM	2.25 2.15 1.35 3.16 2.30 4.83	2.67	0/18
TISQMSTLFSQSINNVA	EVSTREQ	QQYDRLPLM	0.35 0.53 0.60 0.07 0.35 0.63	0.42	1/18 (1.62)
MISQLYNMGQFAINSVA	QASIRNE	QQYDRLPLT	0.86 1.29 1.61 1.44 1.73 1.31	1.37	1/18 (4.16)
KISQMVKVGATHSNSIA	EEVTRAN	QQYHRLPLA	0.95 0.63 1.42 0.56 0.76 0.67	0.83	3/18 (2.33)
MIYETMDYAMRKQNSIA	DNQTRED	QQYAHLPLS	1.72 1.75 3.79 1.78 1.28 2.01	2.06	0/18
HIGGVLEGENVKGRSVA	HMNTRED	QQYDRLPLS	-0.07 -0.18 -0.23 -0.34 -0.08 -0.19	-0.18	0/18
KLYEMVASTMMNIRNVA	DNSTREQ	QQYNRLPLS	1.62 2.02 1.85 0.91 1.71 0.89	1.50	1/18 (2.29)
KVSEFMRGLMQRKDSIA	DNTTRNN	QQYDRLPLS	n.d. 1.63 3.03 3.15 1.33 2.07	2.24	0/18
TIGMFMDNLSQNRNNVA	DTSTLGS	QSYDRLPLS	1.47 0.72 1.03 0.73 1.40 0.88	1.04	0/18
QIYQAMHTLSQIKDNVA	DVNERGS	QQYYRLPLS	0.26 -0.18 -0.35 -0.15 0.23 -0.01	-0.03	0/18
QIYQAMHTLSQHKDNVA	DVNERGS	QQYFRLPLS	0.43 0.49 -0.01 0.22 0.24 0.28	0.27	0/18
MLSQMTGLGMKAENSVA	QASMRFN	QQYHRLPLI	0.65 0.89 0.60 1.23 0.83 1.29	0.91	2/18 (2.44)
SLYEMSVELSGKTHSVA	DNSTRGD	QQYFRLPLD	0.60 0.80 0.73 0.94 1.05 1.37	0.92	1/18 (2.76)
HMSMLTLQGMRMRNSVA	QMTTREN	QQYDHLPLS	1.04 1.24 0.69 0.93 1.01 1.23	1.02	2/18 (3.88)

Nonspecific signal, from three strains lacking the peptide, appeared in 4% of pairings of all light chain designs, centred on 2.64 (5% of these signals below 1.59); values are not corrected for it. Also given: how often the same scFv was detected with the empty control strains, with their mean in brackets.
The authors averaged sequences with at least three values out of six and counted those with two or fewer as poor binders.
The range of this assay differs from that of the first round, and the authors advise against merging the two.